# According to ChEMBL document CHEMBL1123414, “Neurochemistry of aging. 1. Toxins for an animal model of Alzheimer's disease” (J Med Chem, 1986):
# Protein sequences, listed by entry. Tags and fused reporters are not part of them.
# UniProt P08483, whole entry: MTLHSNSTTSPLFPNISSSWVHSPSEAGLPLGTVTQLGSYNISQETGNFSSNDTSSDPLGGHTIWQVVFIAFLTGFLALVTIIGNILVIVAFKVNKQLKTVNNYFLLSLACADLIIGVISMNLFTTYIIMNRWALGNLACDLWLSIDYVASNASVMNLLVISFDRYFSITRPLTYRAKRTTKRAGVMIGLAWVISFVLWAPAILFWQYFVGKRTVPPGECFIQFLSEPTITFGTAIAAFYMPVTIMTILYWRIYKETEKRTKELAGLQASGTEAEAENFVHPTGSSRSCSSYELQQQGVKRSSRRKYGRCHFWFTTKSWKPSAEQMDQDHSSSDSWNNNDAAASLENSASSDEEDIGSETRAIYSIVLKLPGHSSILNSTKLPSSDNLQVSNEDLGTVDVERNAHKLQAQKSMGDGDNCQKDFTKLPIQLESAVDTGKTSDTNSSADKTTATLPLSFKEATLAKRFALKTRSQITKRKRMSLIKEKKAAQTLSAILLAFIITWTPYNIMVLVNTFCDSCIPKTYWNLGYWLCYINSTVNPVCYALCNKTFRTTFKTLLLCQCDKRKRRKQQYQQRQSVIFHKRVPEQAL
# Target: Muscarinic acetylcholine receptor M3 (Rattus norvegicus) (UniProt P08483)
# Assay: Compound was tested in vitro for its ability to displace [3H]-QNB from brain Muscarinic acetylcholine receptor
row,Structure (SMILES),Displacement
1,OCC[N+]1(C2CC2)CC1,90%
2,CC(C)[N+]1(CCO)CC1,9%
